Measurements taken from US4789630A, “Ionic compounds containing the cationic meriquinone of a benzidine” (Cetus Corporation, priority 1986, dated 1988).

Assays:
[1] = Experimental: Stock HRP solutions were prepared in 0.10M NaCl, 1.0 mM Na phosphate, pH 6.0 to be 22 ng/ml or 0.43 ng/ml in HRP, shortly before assay, HRP-catalyzed oxidation of TMB by H2 O2 was initiated by adding 20 or 2.0 μl of […] or 20 or 10 μl of 0.43 ng/ml HRP to 1.00 ml of the assay solution at 25° C. […] At the end of each reaction interval, replicate 100 μl volumes of reaction mixture were spotted on a Nuclepore polycarbonate filter (3 μm pore size) and dried by gentle suction to give deposits 3-4 mm in diameter.
The initial velocity was transformed from units of absorbance per time to reciprocal time (turnover number) by dividing by the meriquinone extinction coefficient, 3.9×10^4 M^-1 cm^-1, and by the HRP concentration. […] The transition time is the time to crystal nucleation.

[2] = pH 5

In the case of Fumarate, the “stability of blue deposits on filter” value [1] is reported as “stable during standing for over a week at room temperature”, the “Solubility Ratio: 25.2 C/0.0 C” value [2] is reported as 5.6 and the “Molar Solubility in 0.1 M Anion” value ([2]; sodium acetate, 10% ethanol) is reported as 7 × 10^-9 Molar.
